# Results reported in patent US20230027739A1, “ANTIGEN-BINDING AND ANTIGEN D[…]” (Entrada Therapeutics, Inc., priority 2021, published 2023).
# B1: K19-Cys-EEV12 (designed binder)
# chain: MHHHHHHENLYFQGDLGKKLLEAARAGQDDEVRILMANGADVNASDRWGWTPLHLAAWWGHLEIVEVLLKRGADVSAADLHGQSPLHLAAMVGHLEIVEVLLKYGADVNAKDTMGATPLHLAARSGHLEIVEELLKNGADMNAQDKFGKTTFDISTDNGNEDLAEILQKLC
# modifications: not checked
# Target: GST-KRas^G12D(1-188)-GDP (human)
binder,measurement,value
B1,Kd,3.15 nM
